“Also recorded” adds a separate entry of the source.
Molecular target: chymotrypsin:soybean trypsin inhibitor (Bos taurus, UniProt P00766)
Assay: DLS chymotrypsin/soybean trypsin inhibitor heteroassociation repeated in the presence of a small molecule inhibitor
Type: binding
Conditions: 500 mM AEBSF; hydrochloride
Experimental: The additional data set in FIG. 3, represented by open squares, is the same experiment repeated in the presence of 500 mM 4-(2-Aminoethyl) benzenesulfonyl fluoride hydrochloride (AEBSF). AEBSF, is a small molecule known to be a serine protease inhibitor which binds to the chymotrypsin active site, thus inhibiting the binding of the soybean trypsin inhibitor. Since AEBSF is a small molecule (rh<<1 nm), the decay rate of the autocorrelation function associated with AEBSF is faster than may be observed with conventional DLS technology, and the presence of that molecule is not observed in the DLS signal. When AEBSF associates with chymotrypsin, the rh of the associated species is not measurable different from that of unassociated chymotrypsin. The increase in rh seen in the absence of AEBSF is not observed in this experiment. […] Additionally, the association constant of AEBSF with chymotrypsin may be measured using this invention by repeating the chymotrypsin/soybean trypsin inhibitor/AEBSF experiment and lowering the concentration of AEBSF until some increase in rh is seen, and modeling the associating species.

Cl.NCCc1ccc(S(=O)(=O)F)cc1 [AEBSF, 4-(2-Aminoethyl) benzenesulfonyl fluoride hydrochloride]
inhibition of chymotrypsin/soybean trypsin inhibitor binding (increase in rh): completely inhibited; also recorded: No binding
